{
  "source": "patent US11369615B2",
  "about": "“Agent for improving mitochondrial dysfunction, preventative or therapeutic agent for diseases or symptoms caused by mitochondrial dysfunction, and applications therefor” (JICHI MEDICAL UNIVERSITY, priority 2017, dated 2022)",
  "origin": "cited, not measured here",
  "conditions": "stated as known; cited from earlier work",
  "data": [
    {"smiles": "Cc1cc2c(s1)Nc1ccccc1N=C2N1CCN(C)CC1", "note": "[(I-3)]", "values": [
      {"measurement": "ability to pass through the blood-brain barrier", "result": "known to be able to pass through the blood-brain barrier"}
    ]}
  ]
}
